This data set deals with crop plants, for example oilseed rape. Nature of the data set: Stunting: mean plant height after azole application. The settings on record: dosage 250 g/ha, comparative 11.7 cm. The format is in vivo. The source says:
As already mentioned above, some azoles known from the prior art, which are recommended in combination with abscisic acid to increase plant resistance against abiotic stress (cf. WO2007/008580 A; diniconazole and uniconazole), lead to an undesirable degree of stunting in some crop plants, for example oilseed rape.
In the case of application of the inventive azoles, this stunting occurs to a lower or non-undesirable degree: […]

As to diniconazole, the “Mean plant height (cm)” value is on record as 6.7 cm.

The values above are taken from patent US8614168B2, “Use of azoles for increasing the abiotic stress resistance of plants or plant parts” (Monheim, priority 2008, dated 2013).
